Experimental findings from patent US20140100156A1 (SANOFI, priority 2012, published 2014) are described below.

Chains of the proteins cited; added tags and fusions are not shown. Residues count along the entry.
UniProt P47871, 26-477: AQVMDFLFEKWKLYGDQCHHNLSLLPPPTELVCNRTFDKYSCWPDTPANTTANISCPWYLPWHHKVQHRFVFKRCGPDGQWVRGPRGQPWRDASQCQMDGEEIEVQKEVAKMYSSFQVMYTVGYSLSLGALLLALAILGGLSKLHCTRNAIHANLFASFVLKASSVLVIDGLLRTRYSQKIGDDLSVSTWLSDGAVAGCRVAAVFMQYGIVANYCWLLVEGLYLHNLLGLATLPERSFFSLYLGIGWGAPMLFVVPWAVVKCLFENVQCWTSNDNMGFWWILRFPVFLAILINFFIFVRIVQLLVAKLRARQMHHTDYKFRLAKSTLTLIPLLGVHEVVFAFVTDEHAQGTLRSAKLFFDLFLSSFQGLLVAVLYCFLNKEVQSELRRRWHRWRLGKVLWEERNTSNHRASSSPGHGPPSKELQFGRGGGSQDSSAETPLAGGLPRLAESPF
UniProt P43220, 24-463: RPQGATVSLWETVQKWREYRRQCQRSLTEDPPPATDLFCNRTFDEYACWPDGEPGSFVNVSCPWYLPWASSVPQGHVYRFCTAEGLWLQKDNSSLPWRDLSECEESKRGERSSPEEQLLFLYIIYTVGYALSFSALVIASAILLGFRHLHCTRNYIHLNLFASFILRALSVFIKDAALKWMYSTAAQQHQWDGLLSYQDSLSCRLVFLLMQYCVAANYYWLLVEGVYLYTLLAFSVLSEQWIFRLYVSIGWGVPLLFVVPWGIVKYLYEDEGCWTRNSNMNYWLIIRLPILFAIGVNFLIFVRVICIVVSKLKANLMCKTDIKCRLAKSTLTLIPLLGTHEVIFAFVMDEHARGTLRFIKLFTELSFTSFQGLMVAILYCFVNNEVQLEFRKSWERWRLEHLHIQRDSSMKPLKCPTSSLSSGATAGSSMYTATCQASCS

What is called EC50 is the concentration that produces a half-maximal response.

Where two headings read alike, the source gives them in different places.

One experiment deals with T1, human glucagon receptor (Homo sapiens, UniProt P47871).
T1 construct: expressed in transfected cells; host or cells: HEK-293
Kind of experiment: cAMP response (HTRF) of HEK-293 cells stably expressing human glucagon receptor. Particulars: Table 5, cAMP, HEK-293. The experiment is classed as cell-based. For orientation: In TR-FRET formats the signal depends on donor and acceptor labels being close together.

Another experiment addresses T2, human GLP-1 receptor (Homo sapiens, UniProt P43220).
T2 construct: expressed in transfected cells; host or cells: HEK-293
The experiment in a line: cAMP response (HTRF) of HEK-293 cells stably expressing human GLP-1 receptor. The following applies: Table 5, cAMP, HEK-293. Format: cell-based.

Regarding `CCCCCCCC/C=C\CCCCCCCC(=O)NCCCC(=O)NCCCC[C@H](NC(=O)[C@H](CCC(N)=O)NC(=O)[C@H](CCCCN)NC(=O)[C@H](CO)NC(=O)[C@H](CC(C)C)NC(=O)[C@H](CC(=O)O)NC(=O)[C@H](CO)NC(=O)[C@@H](NC(=O)[C@H](Cc1ccccc1)NC(=O)[C@@H](NC(=O)CNC(=O)[C@H](CCC(N)=O)NC(=O)[C@@H](CO)NC(=O)[C@@H](N)Cc1c[nH]cn1)[C@@H](C)O)[C@@H](C)O)C(=O)N[C@@H](CCC(=O)O)C(=O)N[C@@H](CO)C(=O)N[C@@H](CCCNC(=N)N)C(=O)N[C@@H](C)C(=O)N[C@@H](C)C(=O)N[C@@H](CCC(N)=O)C(=O)N[C@@H](CC(=O)O)C(=O)N[C@@H](Cc1ccccc1)C(=O)N[C@H](C(=O)N[C@@H](CCC(=O)O)C(=O)N[C@@H](Cc1c[nH]c2ccccc12)C(=O)N[C@@H](CC(C)C)C(=O)N[C@@H](CCCCN)C(=O)N[C@@H](C)C(=O)NCC(=O)NCC(=O)N1CCC[C@H]1C(=O)N[C@@H](CO)C(=O)N[C@@H](CO)C(=O)NCC(=O)N[C@@H](C)C(=O)N1CCC[C@H]1C(=O)N1CCC[C@H]1C(=O)N1CCC[C@H]1C(=O)N[C@@H](CO)C(N)=O)[C@@H](C)CC` [compound 56], the results for the concentration giving a half-maximal response (EC50) at human glucagon receptor (read-out: EC50 hGlucagon-R) and at human GLP-1 receptor (read-out: EC50 hGLP-1R) were 29.3 pM and 4.5 pM, respectively.
`CCCCCCCCCCOc1ccc(C(=O)N[C@@H](CCC(=O)NCCCC[C@H](NC(=O)[C@H](CCC(N)=O)NC(=O)[C@H](CCCCN)NC(=O)[C@H](CO)NC(=O)[C@H](CC(C)C)NC(=O)[C@H](CC(=O)O)NC(=O)[C@H](CO)NC(=O)[C@@H](NC(=O)[C@H](Cc2ccccc2)NC(=O)[C@@H](NC(=O)CNC(=O)[C@H](CCC(N)=O)NC(=O)[C@@H](CO)NC(=O)[C@@H](N)Cc2c[nH]cn2)[C@@H](C)O)[C@@H](C)O)C(=O)N[C@@H](CCC(=O)O)C(=O)N[C@@H](CO)C(=O)N[C@@H](CCCNC(=N)N)C(=O)N[C@@H](C)C(=O)N[C@@H](C)C(=O)N[C@@H](CCC(N)=O)C(=O)N[C@@H](CC(=O)O)C(=O)N[C@@H](Cc2ccccc2)C(=O)N[C@H](C(=O)N[C@@H](CCC(=O)O)C(=O)N[C@@H](Cc2c[nH]c3ccccc23)C(=O)N[C@@H](CC(C)C)C(=O)N[C@@H](CCCCN)C(=O)N[C@@H](C)C(=O)NCC(=O)NCC(=O)N2CCC[C@H]2C(=O)N[C@@H](CO)C(=O)N[C@@H](CO)C(=O)NCC(=O)N[C@@H](C)C(=O)N2CCC[C@H]2C(=O)N2CCC[C@H]2C(=O)N2CCC[C@H]2C(=O)N[C@@H](CO)C(N)=O)[C@@H](C)CC)C(=O)O)cc1` [compound 62]: the EC50 at human glucagon receptor (EC50 hGlucagon-R) amounted to 10.6 pM; at human GLP-1 receptor (EC50 hGLP-1R) it was 3.9 pM.
With `CCCCCCCCCCCCCCCC(=O)N[C@@H](CCC(=O)N[C@@H](CCC(=O)NCCCC[C@H](NC(=O)[C@H](CCC(N)=O)NC(=O)[C@H](CCCCN)NC(=O)[C@H](CO)NC(=O)[C@H](CC(C)C)NC(=O)[C@H](CC(=O)O)NC(=O)[C@H](CO)NC(=O)[C@@H](NC(=O)[C@H](Cc1ccccc1)NC(=O)[C@@H](NC(=O)CNC(=O)[C@H](CCC(N)=O)NC(=O)[C@@H](CO)NC(=O)[C@@H](N)Cc1c[nH]cn1)[C@@H](C)O)[C@@H](C)O)C(=O)N[C@@H](CCC(=O)O)C(=O)N[C@@H](CO)C(=O)N[C@@H](CCCNC(=N)N)C(=O)N[C@@H](C)C(=O)N[C@@H](C)C(=O)N[C@@H](CCC(N)=O)C(=O)N[C@@H](CC(=O)O)C(=O)N[C@@H](Cc1ccccc1)C(=O)N[C@H](C(=O)N[C@@H](CCC(=O)O)C(=O)N[C@@H](Cc1c[nH]c2ccccc12)C(=O)N[C@@H](CC(C)C)C(=O)N[C@@H](CCCCN)C(=O)N[C@@H](C)C(=O)NCC(=O)NCC(=O)N1CCC[C@H]1C(=O)N[C@@H](CO)C(=O)N[C@@H](CO)C(=O)NCC(=O)N[C@@H](C)C(=O)N1CCC[C@H]1C(=O)N1CCC[C@H]1C(=O)N1CCC[C@H]1C(=O)N[C@@H](CO)C(N)=O)[C@@H](C)CC)C(=O)O)C(=O)O` [compound 49], the EC50 amounted to 2.9 pM at human glucagon receptor (read-out: EC50 hGlucagon-R) and 1.1 pM at human GLP-1 receptor (read-out: EC50 hGLP-1R).
The corresponding values for `CCCCCCCCCCCCCCCCCC(=O)NCCC(=O)NCCC(=O)NCCCC[C@H](NC(=O)[C@H](CCC(N)=O)NC(=O)[C@H](CCCCN)NC(=O)[C@H](CO)NC(=O)[C@H](CC(C)C)NC(=O)[C@H](CC(=O)O)NC(=O)[C@H](CO)NC(=O)[C@@H](NC(=O)[C@H](Cc1ccccc1)NC(=O)[C@@H](NC(=O)CNC(=O)[C@H](CCC(N)=O)NC(=O)[C@@H](CO)NC(=O)[C@@H](N)Cc1c[nH]cn1)[C@@H](C)O)[C@@H](C)O)C(=O)N[C@@H](CCC(=O)O)C(=O)N[C@@H](CO)C(=O)N[C@@H](CCCNC(=N)N)C(=O)N[C@@H](C)C(=O)N[C@@H](C)C(=O)N[C@@H](CCC(N)=O)C(=O)N[C@@H](CC(=O)O)C(=O)N[C@@H](Cc1ccccc1)C(=O)N[C@H](C(=O)N[C@@H](CCC(=O)O)C(=O)N[C@@H](Cc1c[nH]c2ccccc12)C(=O)N[C@@H](CC(C)C)C(=O)N[C@@H](CCCCN)C(=O)N[C@@H](C)C(=O)NCC(=O)NCC(=O)N1CCC[C@H]1C(=O)N[C@@H](CO)C(=O)N[C@@H](CO)C(=O)NCC(=O)N[C@@H](C)C(=O)N1CCC[C@H]1C(=O)N1CCC[C@H]1C(=O)N1CCC[C@H]1C(=O)N[C@@H](CO)C(N)=O)[C@@H](C)CC` [compound 54] are 4 pM and 4.8 pM.
Take `CCCCCCCCCCCCCCCCCCCCC(=O)N[C@@H](CCC(=O)NCCCC[C@H](NC(=O)[C@H](CCC(N)=O)NC(=O)[C@H](CCCCN)NC(=O)[C@H](CO)NC(=O)[C@H](CC(C)C)NC(=O)[C@H](CC(=O)O)NC(=O)[C@H](CO)NC(=O)[C@@H](NC(=O)[C@H](Cc1ccccc1)NC(=O)[C@@H](NC(=O)CNC(=O)[C@H](CCC(N)=O)NC(=O)C(C)(C)NC(=O)[C@@H](N)Cc1c[nH]cn1)[C@@H](C)O)[C@@H](C)O)C(=O)N[C@@H](CCC(=O)O)C(=O)N[C@@H](CO)C(=O)N[C@@H](CCCNC(=N)N)C(=O)N[C@@H](C)C(=O)N[C@@H](C)C(=O)N[C@@H](CCC(N)=O)C(=O)N[C@@H](CC(=O)O)C(=O)N[C@@H](Cc1ccccc1)C(=O)N[C@H](C(=O)N[C@@H](CCC(=O)O)C(=O)N[C@@H](Cc1c[nH]c2ccccc12)C(=O)N[C@@H](CC(C)C)C(=O)N[C@@H](CCCCN)C(=O)N[C@@H](C)C(=O)NCC(=O)NCC(=O)N1CCC[C@H]1C(=O)N[C@@H](CO)C(=O)N[C@@H](CO)C(=O)NCC(=O)N[C@@H](C)C(=O)N1CCC[C@H]1C(=O)N1CCC[C@H]1C(=O)N1CCC[C@H]1C(=O)N[C@@H](CO)C(N)=O)[C@@H](C)CC)C(=O)O` [compound 202]: the EC50 at human glucagon receptor (read-out: EC50 hGlucagon-R) is 6.9 pM; at human GLP-1 receptor (read-out: EC50 hGLP-1R), 26.2 pM.
Taken in the same sequence, the figures for `CCCCCCCCCCCCCCCCCC(=O)N[C@@H](CCC(=O)NCCCC[C@H](NC(=O)[C@H](CCC(N)=O)NC(=O)[C@H](CCCCN)NC(=O)[C@H](CO)NC(=O)[C@H](CC(C)C)NC(=O)[C@H](CC(=O)O)NC(=O)[C@H](CO)NC(=O)[C@@H](NC(=O)[C@H](Cc1ccccc1)NC(=O)[C@@H](NC(=O)CNC(=O)[C@H](CCC(N)=O)NC(=O)[C@@H](CO)NC(=O)[C@@H](N)Cc1c[nH]cn1)[C@@H](C)O)[C@@H](C)O)C(=O)N[C@@H](CCC(=O)O)C(=O)N[C@@H](CO)C(=O)N[C@@H](CCCNC(=N)N)C(=O)N[C@@H](C)C(=O)N[C@@H](C)C(=O)N[C@@H](CCC(N)=O)C(=O)N[C@@H](CC(C)C)C(=O)N[C@@H](Cc1ccccc1)C(=O)N[C@H](C(=O)N[C@@H](CCC(=O)O)C(=O)N[C@@H](Cc1c[nH]c2ccccc12)C(=O)N[C@@H](CC(C)C)C(=O)N[C@@H](CCCCN)C(=O)N[C@@H](C)C(=O)NCC(=O)NCC(=O)N1CCC[C@H]1C(=O)N[C@@H](CO)C(=O)N[C@@H](CO)C(=O)NCC(=O)N[C@@H](C)C(=O)N1CCC[C@H]1C(=O)N1CCC[C@H]1C(=O)N1CCC[C@H]1C(=O)N[C@@H](CO)C(N)=O)[C@@H](C)CC)C(=O)O` [compound 45] were 19.9 pM and 7.5 pM.
`CCCCCCCCCCCCCCCC(=O)N[C@@H](CCC(=O)NCCCC[C@H](NC(=O)[C@H](CCC(N)=O)NC(=O)[C@H](CCCCN)NC(=O)[C@H](CO)NC(=O)[C@H](CC(C)C)NC(=O)[C@H](CC(=O)O)NC(=O)[C@H](CO)NC(=O)[C@@H](NC(=O)[C@H](Cc1ccccc1)NC(=O)[C@@H](NC(=O)CNC(=O)[C@H](CCC(N)=O)NC(=O)[C@@H](CO)NC(=O)[C@@H](N)Cc1c[nH]cn1)[C@@H](C)O)[C@@H](C)O)C(=O)N[C@@H](CC(=O)O)C(=O)N[C@@H](CCC(=O)O)C(=O)N[C@@H](CCCCN)C(=O)N[C@@H](C)C(=O)N[C@@H](C)C(=O)N[C@@H](CCC(N)=O)C(=O)N[C@@H](CC(=O)O)C(=O)N[C@@H](Cc1ccccc1)C(=O)N[C@H](C(=O)N[C@@H](CCC(=O)O)C(=O)N[C@@H](Cc1c[nH]c2ccccc12)C(=O)N[C@@H](CC(C)C)C(=O)N[C@@H](CCCCN)C(=O)N[C@@H](C)C(=O)NCC(=O)NCC(=O)N1CCC[C@H]1C(=O)N[C@@H](CO)C(=O)N[C@@H](CO)C(=O)NCC(=O)N[C@@H](C)C(=O)N1CCC[C@H]1C(=O)N1CCC[C@H]1C(=O)N1CCC[C@H]1C(=O)N[C@@H](CO)C(N)=O)[C@@H](C)CC)C(=O)O` [compound 22]: the EC50 on human glucagon receptor (read-out: EC50 hGlucagon-R) was determined as 2.4 pM; on human GLP-1 receptor (read-out: EC50 hGLP-1R), 1.1 pM.
For `CCCCCCCCCCCCCCCC(=O)NCCCC[C@H](NC(=O)[C@H](CCC(N)=O)NC(=O)[C@H](CCCCN)NC(=O)[C@H](CO)NC(=O)[C@H](CC(C)C)NC(=O)[C@H](CC(=O)O)NC(=O)[C@H](CO)NC(=O)[C@@H](NC(=O)[C@H](Cc1ccccc1)NC(=O)[C@@H](NC(=O)CNC(=O)[C@H](CCC(N)=O)NC(=O)[C@@H](CO)NC(=O)[C@@H](N)Cc1c[nH]cn1)[C@@H](C)O)[C@@H](C)O)C(=O)N[C@@H](CCC(=O)O)C(=O)N[C@@H](CO)C(=O)N[C@@H](CCCNC(=N)N)C(=O)N[C@@H](CCCNC(=N)N)C(=O)N[C@@H](C)C(=O)NC(C)(C)C(=O)N[C@@H](CC(=O)O)C(=O)N[C@@H](Cc1ccccc1)C(=O)N[C@H](C(=O)N[C@@H](CCC(=O)O)C(=O)N[C@@H](Cc1c[nH]c2ccccc12)C(=O)N[C@@H](CC(C)C)C(=O)N[C@@H](CCCCN)C(=O)N[C@@H](CC(N)=O)C(=O)NCC(=O)NCC(=O)N1CCC[C@H]1C(=O)N[C@@H](CO)C(=O)N[C@@H](CO)C(=O)NCC(=O)N[C@@H](C)C(=O)N1CCC[C@H]1C(=O)N1CCC[C@H]1C(=O)N1CCC[C@H]1C(=O)N[C@@H](CO)C(N)=O)[C@@H](C)CC` [compound 119], the EC50 at human glucagon receptor (read-out: EC50 hGlucagon-R) was determined as 41.2 pM; on human GLP-1 receptor (read-out: EC50 hGLP-1R), 30.8 pM.
